Measurements published in paper PMC4577729, “7-(Pyrazol-4-yl)-3H-imidazo[4,5-b]pyridine-based derivatives for kinase inhibition: Co-crystallisation studies with Aurora-A reveal distinct differences in the orientation of the pyrazole N1-substituent” (Bioorganic & Medicinal Chemistry Letters, 2015).

Chains of the proteins cited; added tags and fusions are not shown. Residues count along the entry.
UniProt Q8IWQ3, whole entry: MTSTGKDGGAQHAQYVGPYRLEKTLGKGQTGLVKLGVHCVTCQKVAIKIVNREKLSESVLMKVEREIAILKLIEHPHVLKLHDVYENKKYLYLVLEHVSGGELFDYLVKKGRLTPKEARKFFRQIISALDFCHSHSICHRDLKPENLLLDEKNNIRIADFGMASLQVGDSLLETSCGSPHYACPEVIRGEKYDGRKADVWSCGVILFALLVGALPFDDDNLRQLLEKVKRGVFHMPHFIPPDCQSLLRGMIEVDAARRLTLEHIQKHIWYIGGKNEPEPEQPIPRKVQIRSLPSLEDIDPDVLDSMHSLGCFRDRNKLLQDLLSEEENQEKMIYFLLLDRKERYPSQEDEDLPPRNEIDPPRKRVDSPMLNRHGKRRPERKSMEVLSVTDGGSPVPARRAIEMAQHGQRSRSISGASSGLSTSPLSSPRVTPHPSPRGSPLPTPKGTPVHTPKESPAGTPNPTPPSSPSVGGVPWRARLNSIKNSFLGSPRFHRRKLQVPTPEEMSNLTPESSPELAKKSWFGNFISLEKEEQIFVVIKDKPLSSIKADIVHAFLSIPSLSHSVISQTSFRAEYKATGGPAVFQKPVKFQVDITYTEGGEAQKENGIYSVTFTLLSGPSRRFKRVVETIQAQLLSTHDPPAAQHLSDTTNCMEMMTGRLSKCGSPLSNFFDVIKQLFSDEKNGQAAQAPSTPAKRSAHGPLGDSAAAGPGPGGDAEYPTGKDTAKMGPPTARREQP
UniProt Q8TD08, whole entry: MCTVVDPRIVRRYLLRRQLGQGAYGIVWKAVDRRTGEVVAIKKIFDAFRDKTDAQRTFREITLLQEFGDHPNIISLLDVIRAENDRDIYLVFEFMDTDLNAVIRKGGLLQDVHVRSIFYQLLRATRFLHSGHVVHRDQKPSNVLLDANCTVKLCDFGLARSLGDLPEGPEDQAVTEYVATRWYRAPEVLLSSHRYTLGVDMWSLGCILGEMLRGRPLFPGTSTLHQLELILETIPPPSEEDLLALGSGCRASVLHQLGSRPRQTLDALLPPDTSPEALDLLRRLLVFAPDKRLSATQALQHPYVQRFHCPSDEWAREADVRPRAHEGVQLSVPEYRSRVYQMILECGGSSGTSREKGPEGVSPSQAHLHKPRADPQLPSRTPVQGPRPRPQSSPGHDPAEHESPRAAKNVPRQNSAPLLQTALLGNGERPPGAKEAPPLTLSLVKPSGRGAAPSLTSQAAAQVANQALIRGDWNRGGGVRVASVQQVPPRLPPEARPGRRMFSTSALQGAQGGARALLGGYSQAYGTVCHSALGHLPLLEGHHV
UniProt O60674, whole entry: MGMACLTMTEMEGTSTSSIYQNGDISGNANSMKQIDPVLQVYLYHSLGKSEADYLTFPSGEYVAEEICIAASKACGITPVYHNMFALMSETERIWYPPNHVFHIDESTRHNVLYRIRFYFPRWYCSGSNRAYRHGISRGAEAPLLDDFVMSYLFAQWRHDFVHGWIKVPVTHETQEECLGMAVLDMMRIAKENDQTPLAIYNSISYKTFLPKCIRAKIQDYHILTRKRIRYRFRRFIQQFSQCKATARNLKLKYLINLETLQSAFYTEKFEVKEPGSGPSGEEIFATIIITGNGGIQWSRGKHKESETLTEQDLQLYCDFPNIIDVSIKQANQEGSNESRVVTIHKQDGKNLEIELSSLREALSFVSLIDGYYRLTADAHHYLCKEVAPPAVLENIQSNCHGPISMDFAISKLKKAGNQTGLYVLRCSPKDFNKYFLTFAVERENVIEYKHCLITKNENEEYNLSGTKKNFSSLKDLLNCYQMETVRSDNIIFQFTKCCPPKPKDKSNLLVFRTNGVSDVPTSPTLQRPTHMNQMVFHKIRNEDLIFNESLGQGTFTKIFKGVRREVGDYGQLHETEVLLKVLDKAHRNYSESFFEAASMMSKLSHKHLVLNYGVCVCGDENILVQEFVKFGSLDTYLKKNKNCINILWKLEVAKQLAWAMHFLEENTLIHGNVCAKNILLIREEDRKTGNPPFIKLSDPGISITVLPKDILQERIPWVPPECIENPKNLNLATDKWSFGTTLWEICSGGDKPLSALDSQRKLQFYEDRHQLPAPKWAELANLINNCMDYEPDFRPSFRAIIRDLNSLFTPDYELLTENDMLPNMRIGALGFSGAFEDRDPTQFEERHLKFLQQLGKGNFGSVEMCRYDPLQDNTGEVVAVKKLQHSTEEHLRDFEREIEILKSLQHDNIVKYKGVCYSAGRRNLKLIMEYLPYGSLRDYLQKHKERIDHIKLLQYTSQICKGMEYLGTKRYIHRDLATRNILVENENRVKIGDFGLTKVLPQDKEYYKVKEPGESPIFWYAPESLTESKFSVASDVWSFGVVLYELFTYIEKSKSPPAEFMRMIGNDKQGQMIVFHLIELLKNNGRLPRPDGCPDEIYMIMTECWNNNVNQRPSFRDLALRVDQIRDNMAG
UniProt O60285, whole entry: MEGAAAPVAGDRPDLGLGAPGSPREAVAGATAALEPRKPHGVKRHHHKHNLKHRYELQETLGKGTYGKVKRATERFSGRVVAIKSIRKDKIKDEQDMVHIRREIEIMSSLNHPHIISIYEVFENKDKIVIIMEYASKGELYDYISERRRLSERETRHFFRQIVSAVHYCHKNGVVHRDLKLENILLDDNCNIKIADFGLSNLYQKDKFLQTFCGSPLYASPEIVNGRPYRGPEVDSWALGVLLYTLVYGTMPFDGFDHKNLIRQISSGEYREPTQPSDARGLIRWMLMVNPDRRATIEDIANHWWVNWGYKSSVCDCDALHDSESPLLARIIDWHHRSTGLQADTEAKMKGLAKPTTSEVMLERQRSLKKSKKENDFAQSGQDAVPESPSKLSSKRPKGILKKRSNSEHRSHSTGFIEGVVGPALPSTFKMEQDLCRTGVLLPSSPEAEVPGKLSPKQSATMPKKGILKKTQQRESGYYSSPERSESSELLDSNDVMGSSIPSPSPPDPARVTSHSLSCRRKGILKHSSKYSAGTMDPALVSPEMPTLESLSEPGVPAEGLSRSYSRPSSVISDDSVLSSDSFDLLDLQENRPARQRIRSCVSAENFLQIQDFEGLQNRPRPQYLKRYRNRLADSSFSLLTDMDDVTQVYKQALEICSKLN
UniProt P11309, whole entry: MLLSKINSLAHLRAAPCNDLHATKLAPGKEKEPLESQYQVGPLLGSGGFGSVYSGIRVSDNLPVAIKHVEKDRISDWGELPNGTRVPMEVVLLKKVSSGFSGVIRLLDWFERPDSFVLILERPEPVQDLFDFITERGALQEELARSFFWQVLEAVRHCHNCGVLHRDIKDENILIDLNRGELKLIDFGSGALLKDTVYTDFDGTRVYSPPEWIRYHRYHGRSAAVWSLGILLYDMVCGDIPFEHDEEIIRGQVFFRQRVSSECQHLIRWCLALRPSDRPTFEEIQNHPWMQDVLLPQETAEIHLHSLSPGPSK
UniProt P31749, whole entry: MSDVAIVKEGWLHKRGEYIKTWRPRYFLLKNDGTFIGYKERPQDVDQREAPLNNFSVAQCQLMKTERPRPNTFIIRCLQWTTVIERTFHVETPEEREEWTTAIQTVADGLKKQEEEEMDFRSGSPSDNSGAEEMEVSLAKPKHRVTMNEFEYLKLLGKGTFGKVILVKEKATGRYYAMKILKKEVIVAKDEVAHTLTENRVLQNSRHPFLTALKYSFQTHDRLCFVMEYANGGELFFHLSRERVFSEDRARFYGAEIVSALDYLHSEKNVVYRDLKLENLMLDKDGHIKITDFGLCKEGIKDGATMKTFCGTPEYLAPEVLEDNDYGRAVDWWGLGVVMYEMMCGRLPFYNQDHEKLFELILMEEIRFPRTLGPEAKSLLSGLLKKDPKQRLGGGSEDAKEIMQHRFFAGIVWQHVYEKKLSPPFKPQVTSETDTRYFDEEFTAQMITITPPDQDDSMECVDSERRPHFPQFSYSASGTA
UniProt Q05513, whole entry: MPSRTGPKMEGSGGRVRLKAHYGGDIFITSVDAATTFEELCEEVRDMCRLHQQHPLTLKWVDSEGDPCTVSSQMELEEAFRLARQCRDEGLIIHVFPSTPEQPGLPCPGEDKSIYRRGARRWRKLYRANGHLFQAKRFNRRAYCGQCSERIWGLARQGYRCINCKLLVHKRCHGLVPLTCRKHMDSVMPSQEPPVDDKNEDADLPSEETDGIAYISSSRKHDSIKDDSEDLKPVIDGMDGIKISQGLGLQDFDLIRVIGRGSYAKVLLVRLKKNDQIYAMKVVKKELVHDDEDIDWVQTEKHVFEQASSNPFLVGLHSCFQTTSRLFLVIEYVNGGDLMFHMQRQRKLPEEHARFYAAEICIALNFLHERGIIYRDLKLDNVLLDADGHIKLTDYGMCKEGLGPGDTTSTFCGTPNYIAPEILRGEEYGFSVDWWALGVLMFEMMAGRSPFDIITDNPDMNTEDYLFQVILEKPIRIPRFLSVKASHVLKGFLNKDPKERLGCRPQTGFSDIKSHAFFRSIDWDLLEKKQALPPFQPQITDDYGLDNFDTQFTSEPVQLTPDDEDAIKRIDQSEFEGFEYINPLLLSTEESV
UniProt P04629, 33-796 limits assumed: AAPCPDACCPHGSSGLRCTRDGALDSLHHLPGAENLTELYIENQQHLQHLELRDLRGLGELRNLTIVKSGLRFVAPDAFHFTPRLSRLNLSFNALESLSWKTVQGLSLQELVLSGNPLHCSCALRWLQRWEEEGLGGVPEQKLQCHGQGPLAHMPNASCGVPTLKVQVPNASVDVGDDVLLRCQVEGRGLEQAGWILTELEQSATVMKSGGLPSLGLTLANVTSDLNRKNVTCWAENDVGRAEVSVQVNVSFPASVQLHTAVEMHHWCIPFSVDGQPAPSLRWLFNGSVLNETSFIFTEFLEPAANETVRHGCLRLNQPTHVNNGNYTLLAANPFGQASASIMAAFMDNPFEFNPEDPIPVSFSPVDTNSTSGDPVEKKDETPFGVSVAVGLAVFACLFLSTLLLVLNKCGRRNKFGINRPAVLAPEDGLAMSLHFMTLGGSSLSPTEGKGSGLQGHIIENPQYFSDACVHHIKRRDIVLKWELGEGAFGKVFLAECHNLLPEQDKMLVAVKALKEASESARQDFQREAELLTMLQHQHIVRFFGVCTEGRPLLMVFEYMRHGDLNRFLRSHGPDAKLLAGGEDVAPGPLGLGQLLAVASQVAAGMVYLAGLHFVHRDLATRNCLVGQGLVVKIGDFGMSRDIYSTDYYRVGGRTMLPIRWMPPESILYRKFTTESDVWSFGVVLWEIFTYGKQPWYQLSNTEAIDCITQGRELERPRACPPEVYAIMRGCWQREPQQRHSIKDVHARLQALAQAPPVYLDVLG
UniProt P17948, 27-1338 limits assumed: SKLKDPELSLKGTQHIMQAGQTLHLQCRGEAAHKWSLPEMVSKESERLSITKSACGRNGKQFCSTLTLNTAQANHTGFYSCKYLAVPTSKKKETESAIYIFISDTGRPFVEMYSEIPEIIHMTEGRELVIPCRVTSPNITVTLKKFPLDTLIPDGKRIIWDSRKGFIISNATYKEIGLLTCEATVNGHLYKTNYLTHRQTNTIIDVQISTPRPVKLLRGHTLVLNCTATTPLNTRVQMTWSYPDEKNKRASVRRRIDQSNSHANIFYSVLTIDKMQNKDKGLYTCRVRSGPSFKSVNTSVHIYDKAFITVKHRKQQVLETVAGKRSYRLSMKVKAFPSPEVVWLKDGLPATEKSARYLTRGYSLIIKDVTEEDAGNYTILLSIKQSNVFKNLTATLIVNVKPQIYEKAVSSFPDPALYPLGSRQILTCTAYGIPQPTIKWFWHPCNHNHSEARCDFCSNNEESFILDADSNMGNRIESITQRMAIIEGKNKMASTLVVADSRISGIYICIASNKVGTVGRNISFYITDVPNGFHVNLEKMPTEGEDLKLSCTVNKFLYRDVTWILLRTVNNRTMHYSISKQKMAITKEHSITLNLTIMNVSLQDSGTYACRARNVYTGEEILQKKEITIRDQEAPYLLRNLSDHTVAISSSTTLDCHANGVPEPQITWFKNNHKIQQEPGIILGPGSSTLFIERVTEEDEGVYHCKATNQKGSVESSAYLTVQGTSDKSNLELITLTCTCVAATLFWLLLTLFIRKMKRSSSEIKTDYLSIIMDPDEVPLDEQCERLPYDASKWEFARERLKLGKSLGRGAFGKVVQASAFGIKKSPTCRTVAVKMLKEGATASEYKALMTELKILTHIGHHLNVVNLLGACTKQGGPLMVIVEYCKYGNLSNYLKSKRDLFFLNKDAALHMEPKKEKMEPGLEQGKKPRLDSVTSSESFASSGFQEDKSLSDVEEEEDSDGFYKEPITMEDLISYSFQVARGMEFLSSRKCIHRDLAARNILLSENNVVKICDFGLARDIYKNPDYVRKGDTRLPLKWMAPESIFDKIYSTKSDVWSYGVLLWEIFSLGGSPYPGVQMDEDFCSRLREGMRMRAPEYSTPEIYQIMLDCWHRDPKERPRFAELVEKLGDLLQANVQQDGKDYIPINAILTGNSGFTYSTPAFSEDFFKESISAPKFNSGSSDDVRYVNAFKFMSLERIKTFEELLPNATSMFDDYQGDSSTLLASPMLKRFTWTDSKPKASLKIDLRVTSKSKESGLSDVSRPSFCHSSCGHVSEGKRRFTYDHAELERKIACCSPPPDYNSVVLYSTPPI

Assays:
Aurora A = Aurora A (Homo sapiens, UniProt O14965); test: Aurora-A microfluidic kinase assay; details: read-out: Aurora-A IC50; biochemical; mean of two determinations or mean ±SD for n > 2
Aurora B = Aurora B (Homo sapiens, UniProt Q96GD4); test: Aurora-B microfluidic kinase assay; details: read-out: Aurora-B IC50; biochemical; mean of two determinations or mean ±SD for n > 2
[1] = system: SW620 human colon carcinoma cells; test: SW620 cell growth inhibition; details: read-out: GI50 SW620, 72 h incubation
[2] = system: HCT116 human colon carcinoma cells; test: HCT116 cell growth inhibition; details: read-out: GI50 HCT116, 72 h incubation
SmMLCK = SmMLCK (Homo sapiens, UniProt Q15746); test: Kinase selectivity profiling; details: 1 µM, assay duplicates
BRSK2 = BRSK2 (Homo sapiens, UniProt Q8IWQ3); test: Kinase selectivity profiling; type: biochemical; details: 1 µM, assay duplicates
Procedure: (§1) [20] Kinase selectivity profiling for compounds 7a, 7d, 14d and 14g was carried out at the International Centre for Protein Kinase Profiling, Division of Signal Transduction Therapy, University of Dundee.
(§2) Table S1: Kinase selectivity profiling of compounds 7a and 7d in a 102-kinase panel screened at a concentration of 1 µM.
(§3) Table S2: Kinase selectivity profiling of compounds 14d and 14g in a 105-kinase panel screened at a concentration of 1 µM.

CDK2-Cyclin A = CDK2-Cyclin A (Homo sapiens, UniProt P24941); test: Kinase selectivity profiling; type: biochemical; details: 1 µM, assay duplicates
Procedure: as §1, §2, §3

CHK2 = CHK2 (Homo sapiens, UniProt O96017); test: Kinase selectivity profiling; type: biochemical; details: 1 µM, assay duplicates
Procedure: as §1, §2, §3

DYRK1A = DYRK1A (Homo sapiens, UniProt Q13627); test: Kinase selectivity profiling; type: biochemical; details: 1 µM, assay duplicates
Procedure: as §1, §2, §3

EPH-A4 = EPH-A4 (Homo sapiens, UniProt P54764); test: Kinase selectivity profiling; type: biochemical; details: 1 µM, assay duplicates
Procedure: as §1, §2, §3

EPH-B3 = EPH-B3 (Homo sapiens, UniProt P54753); test: Kinase selectivity profiling; type: biochemical; details: 1 µM, assay duplicates
Procedure: as §1, §2, §3

EPH-B4 = EPH-B4 (Homo sapiens, UniProt P54760); test: Kinase selectivity profiling; type: biochemical; details: 1 µM, assay duplicates
Procedure: as §1, §2, §3

ERK1 = ERK1 (Homo sapiens, UniProt P27361); test: Kinase selectivity profiling; type: biochemical; details: 1 µM, assay duplicates
Procedure: as §1, §2, §3

ERK8 = ERK8 (Homo sapiens, UniProt Q8TD08); test: Kinase selectivity profiling; type: biochemical; details: for ERK8 inhibition: 1 μM; for ERK8 % activity remaining: 1 µM, assay duplicates
Procedure: as §1, §2, §3

HER4 = HER4 (Homo sapiens, UniProt Q15303); test: Kinase selectivity profiling; type: biochemical; details: 1 µM, assay duplicates
Procedure: as §1, §2, §3

HIPK2 = HIPK2 (Homo sapiens, UniProt Q9H2X6); test: Kinase selectivity profiling; type: biochemical; details: 1 µM, assay duplicates
Procedure: as §1, §2, §3

IGF-1R = IGF-1R (Homo sapiens, UniProt P08069); test: Kinase selectivity profiling; type: biochemical; details: 1 µM, assay duplicates
Procedure: as §1, §2, §3

JAK2 = JAK2 (Homo sapiens, UniProt O60674); test: Kinase selectivity profiling; type: biochemical; details: for JAK2 inhibition: 1 μM; for JAK2 % activity remaining: 1 µM, assay duplicates
Procedure: as §1, §2, §3

JNK2 = JNK2 (Homo sapiens, UniProt P45984); test: Kinase selectivity profiling; type: biochemical; details: 1 µM, assay duplicates
Procedure: as §1, §2, §3

LKB1 = LKB1 (Homo sapiens, UniProt Q15831); test: Kinase selectivity profiling; type: biochemical; details: 1 µM, assay duplicates
Procedure: as §1, §2, §3

MAPKAP-K3 = MAPKAP-K3 (Homo sapiens, UniProt Q16644); test: Kinase selectivity profiling; type: biochemical; details: 1 µM, assay duplicates
Procedure: as §1, §2, §3

MARK2 = MARK2 (Homo sapiens, UniProt Q7KZI7); test: Kinase selectivity profiling; type: biochemical; details: 1 µM, assay duplicates
Procedure: as §1, §2, §3

MARK4 = MARK4 (Homo sapiens, UniProt Q96L34); test: Kinase selectivity profiling; type: biochemical; details: 1 µM, assay duplicates
Procedure: as §1, §2, §3

MINK1 = MINK1 (Homo sapiens, UniProt Q8N4C8); test: Kinase selectivity profiling; type: biochemical; details: 1 µM, assay duplicates
Procedure: as §1, §2, §3

MKK1 = MKK1 (Homo sapiens, UniProt Q02750); test: Kinase selectivity profiling; type: biochemical; details: 1 µM, assay duplicates
Procedure: as §1, §2, §3

MSK1 = MSK1 (Homo sapiens, UniProt O75582); test: Kinase selectivity profiling; type: biochemical; details: 1 µM, assay duplicates
Procedure: as §1, §2, §3

NUAK1 = NUAK1 (Homo sapiens, UniProt O60285); test: Kinase selectivity profiling; type: biochemical; details: 1 µM, assay duplicates
Procedure: as §1, §2, §3

PAK2 = PAK2 (Homo sapiens, UniProt Q13177); test: Kinase selectivity profiling; type: biochemical; details: 1 µM, assay duplicates
Procedure: as §1, §2, §3

PHK = PHK (Homo sapiens, UniProt Q16816); test: Kinase selectivity profiling; type: biochemical; details: 1 µM, assay duplicates
Procedure: as §1, §2, §3

PIM1 = PIM1 (Homo sapiens, UniProt P11309); test: Kinase selectivity profiling; type: biochemical; details: 1 µM, assay duplicates
Procedure: as §1, §2, §3

PIM3 = PIM3 (Homo sapiens, UniProt Q86V86); test: Kinase selectivity profiling; type: biochemical; details: 1 µM, assay duplicates
Procedure: as §1, §2, §3

PKBa = PKBa (Homo sapiens, UniProt P31749); test: Kinase selectivity profiling; type: biochemical; details: 1 µM, assay duplicates
Procedure: as §1, §2, §3

PKCz = PKCz (Homo sapiens, UniProt Q05513); test: Kinase selectivity profiling; type: biochemical; details: 1 µM, assay duplicates
Procedure: as §1, §2, §3

PKD1 = PKD1 (Homo sapiens, UniProt Q15139); test: Kinase selectivity profiling; type: biochemical; details: 1 µM, assay duplicates
Procedure: as §1, §2, §3

PLK1 = PLK1 (Homo sapiens, UniProt P53350); test: Kinase selectivity profiling; type: biochemical; details: 1 µM, assay duplicates
Procedure: as §1, §2, §3

PRK2 = PRK2 (Homo sapiens, UniProt Q16513); test: Kinase selectivity profiling; type: biochemical; details: 1 µM, assay duplicates
Procedure: as §1, §2, §3

RSK2 = RSK2 (Homo sapiens, UniProt P51812); test: Kinase selectivity profiling; type: biochemical; details: 1 µM, assay duplicates
Procedure: as §1, §2, §3

Src = Src (Homo sapiens, UniProt P12931); test: Kinase selectivity profiling; type: biochemical; details: 1 µM, assay duplicates
Procedure: as §1, §2, §3

TrkA = TrkA (Homo sapiens, UniProt P04629); test: Kinase selectivity profiling; type: biochemical; details: for TrkA inhibition: 1 μM; for TrkA % activity remaining: 1 µM, assay duplicates
Procedure: as §1, §2, §3

VEG-FR = VEG-FR (Homo sapiens, UniProt P17948); test: Kinase selectivity profiling; type: biochemical; details: for VEGFR inhibition: 1 μM; for VEG-FR % activity remaining: 1 µM, assay duplicates
Procedure: as §1, §2, §3

YES1 = YES1 (Homo sapiens, UniProt P07947); test: Kinase selectivity profiling; type: biochemical; details: 1 µM, assay duplicates
Procedure: as §1, §2, §3

CNCc1cccc(Cn2cc(-c3c(Cl)cnc4[nH]c(-c5cn(C)nc5C)nc34)cn2)c1
IC50 (Aurora A): 18 nM | IC50 (Aurora B): 32 nM | GI50 [1]: 340 nM | GI50 [2]: 230 nM | SmMLCK % activity remaining (SmMLCK): 68% | BRSK2 % activity remaining (BRSK2): 77% | CDK2-Cyclin A % activity remaining (CDK2-Cyclin A): 2% | CHK2 % activity remaining (CHK2): 25% | DYRK1A % activity remaining (DYRK1A): 14% | EPH-A4 % activity remaining (EPH-A4): 29% | EPH-B3 % activity remaining (EPH-B3): 39% | EPH-B4 % activity remaining (EPH-B4): 74% | ERK1 % activity remaining (ERK1): 38% | ERK8 inhibition (ERK8): ≥ 80% | ERK8 % activity remaining (ERK8): 1% | HER4 % activity remaining (HER4): 43% | HIPK2 % activity remaining (HIPK2): 10% | IGF-1R % activity remaining (IGF-1R): 3% | JAK2 inhibition (JAK2): ≥ 80% | JAK2 % activity remaining (JAK2): 4% | JNK2 % activity remaining (JNK2): 35% | LKB1 % activity remaining (LKB1): 66% | MAPKAP-K3 % activity remaining (MAPKAP-K3): 95% | MARK2 % activity remaining (MARK2): 48% | MARK4 % activity remaining (MARK4): 33% | MINK1 % activity remaining (MINK1): 56% | MKK1 % activity remaining (MKK1): 39% | MSK1 % activity remaining (MSK1): 50% | NUAK1 % activity remaining (NUAK1): 8% | PAK2 % activity remaining (PAK2): 80% | PHK % activity remaining (PHK): 19% | PIM1 % activity remaining (PIM1): 53% | PIM3 % activity remaining (PIM3): 34% | PKBa % activity remaining (PKBa): 84% | PKCz % activity remaining (PKCz): 82% | PKD1 % activity remaining (PKD1): 82% | PLK1 % activity remaining (PLK1): 101% | PRK2 % activity remaining (PRK2): 30% | RSK2 % activity remaining (RSK2): 10% | Src % activity remaining (Src): 4% | TrkA inhibition (TrkA): ≥ 80% | TrkA % activity remaining (TrkA): 8% | VEGFR inhibition (VEG-FR): ≥ 80% | VEG-FR % activity remaining (VEG-FR): 5% | YES1 % activity remaining (YES1): 8%

Cc1nn(C)cc1-c1nc2c(-c3cnn(Cc4ccc(Cl)cc4)c3)c(Cl)cnc2[nH]1
IC50 (Aurora A): 190 nM | IC50 (Aurora B): 271 nM | GI50 [1]: 260 nM | GI50 [2]: 240 nM | SmMLCK % activity remaining (SmMLCK): 49% | BRSK2 % activity remaining (BRSK2): 33% | CDK2-Cyclin A % activity remaining (CDK2-Cyclin A): 3% | CHK2 % activity remaining (CHK2): 38% | DYRK1A % activity remaining (DYRK1A): 8% | EPH-A4 % activity remaining (EPH-A4): 90% | EPH-B3 % activity remaining (EPH-B3): 86% | EPH-B4 % activity remaining (EPH-B4): 94% | ERK1 % activity remaining (ERK1): 30% | ERK8 inhibition (ERK8): greater than 80% | ERK8 % activity remaining (ERK8): 8% | HER4 % activity remaining (HER4): 104% | HIPK2 % activity remaining (HIPK2): 6% | IGF-1R % activity remaining (IGF-1R): 8% | JAK2 inhibition (JAK2): greater than 80% | JAK2 % activity remaining (JAK2): 4% | JNK2 % activity remaining (JNK2): 49% | LKB1 % activity remaining (LKB1): 64% | MAPKAP-K3 % activity remaining (MAPKAP-K3): 79% | MARK2 % activity remaining (MARK2): 42% | MARK4 % activity remaining (MARK4): 60% | MINK1 % activity remaining (MINK1): 44% | MKK1 % activity remaining (MKK1): 27% | MSK1 % activity remaining (MSK1): 59% | NUAK1 % activity remaining (NUAK1): 4% | PAK2 % activity remaining (PAK2): 103% | PHK % activity remaining (PHK): 68% | PIM1 % activity remaining (PIM1): 91% | PIM3 % activity remaining (PIM3): 80% | PKBa % activity remaining (PKBa): 74% | PKCz % activity remaining (PKCz): 86% | PKD1 % activity remaining (PKD1): 92% | PLK1 % activity remaining (PLK1): 70% | PRK2 % activity remaining (PRK2): 57% | RSK2 % activity remaining (RSK2): 43% | Src % activity remaining (Src): 32% | TrkA inhibition (TrkA): greater than 80% | TrkA % activity remaining (TrkA): 8% | VEGFR inhibition (VEG-FR): greater than 80% | VEG-FR % activity remaining (VEG-FR): 7% | YES1 % activity remaining (YES1): 39%
